Measurements reported in PMC9386018, “A lymphatic-absorbed multi-targeted kinase inhibitor for myelofibrosis therapy” (Nature Communications, 2022).

Biological target: Target kinase isoforms (PI3K, mTOR, RAF, MEK) (Homo sapiens, UniProt P42345)
Assay: Target kinase isoforms 10-point IC50 determination (Supplementary Fig. 7)

COc1ncc(-c2ccc3nccc(-c4ccnnc4)c3c2)cc1NS(=O)(=O)c1ccc(F)cc1F [GSK2126458]
Kinase Activity (%) mTOR (concentration 0.495 nM, 0.000495 µM): 92% and 91% and 94%
Kinase Activity (%) mTOR (concentration 1.52 nM, 0.00152 µM): 82% and 84% and 81% and 83%
Kinase Activity (%) mTOR (concentration 4.57 nM, 0.00457 µM): 40% and 43%
Kinase Activity (%) mTOR (concentration 41.2 nM, 0.0412 µM): -2% and -1%
Kinase Activity (%) mTOR (concentration 123 nM, 0.123 µM): 0% and -2% and -1%
Kinase Activity (%) mTOR (concentration 1110 nM, 1.11 µM): -2% and 0% and -3% and -1%
Kinase Activity (%) mTOR (concentration 3330 nM, 3.33 µM): -1% and -2%
Kinase Activity (%) mTOR (concentration 10000 nM, 10 µM): -1% and -2% and 0%

“And” between values parts separate entries of the source, which are not always exact repeats. Identical values can stand only once.
